pEC50: −log10 of the molar value.
System: Isolated bladder smooth muscle strips
Conditions: read-out: EC50 of agonist, cumulative concentration-response curve (contraction); normal animals; FIG. 2

CSCC[C@H](NC(=O)[C@H](CC(C)C)NC(=O)CNC(=O)[C@H](Cc1ccccc1)NC(=O)[C@H](Cc1ccccc1)NC(=O)[C@H](CCC(N)=O)NC(=O)[C@H](CCC(N)=O)NC(=O)[C@@H]1CCCN1C(=O)[C@H](CCCCN)NC(=O)[C@@H]1CCCN1C(=O)[C@@H](N)CCCNC(=N)N)C(N)=O [SP, Substance P]
pEC50: 8.19

From patent publication US9855256B2, “Cyclooxygenase inhibitor and calcium channel antagonist compositions and methods for use in urological procedures” (Omeros Corporation, priority 2005, dated 2018)
